# pIC50: −log10 of the molar value.
# Chains of the proteins cited; added tags and fusions are not shown.
# UniProt P21860, whole entry: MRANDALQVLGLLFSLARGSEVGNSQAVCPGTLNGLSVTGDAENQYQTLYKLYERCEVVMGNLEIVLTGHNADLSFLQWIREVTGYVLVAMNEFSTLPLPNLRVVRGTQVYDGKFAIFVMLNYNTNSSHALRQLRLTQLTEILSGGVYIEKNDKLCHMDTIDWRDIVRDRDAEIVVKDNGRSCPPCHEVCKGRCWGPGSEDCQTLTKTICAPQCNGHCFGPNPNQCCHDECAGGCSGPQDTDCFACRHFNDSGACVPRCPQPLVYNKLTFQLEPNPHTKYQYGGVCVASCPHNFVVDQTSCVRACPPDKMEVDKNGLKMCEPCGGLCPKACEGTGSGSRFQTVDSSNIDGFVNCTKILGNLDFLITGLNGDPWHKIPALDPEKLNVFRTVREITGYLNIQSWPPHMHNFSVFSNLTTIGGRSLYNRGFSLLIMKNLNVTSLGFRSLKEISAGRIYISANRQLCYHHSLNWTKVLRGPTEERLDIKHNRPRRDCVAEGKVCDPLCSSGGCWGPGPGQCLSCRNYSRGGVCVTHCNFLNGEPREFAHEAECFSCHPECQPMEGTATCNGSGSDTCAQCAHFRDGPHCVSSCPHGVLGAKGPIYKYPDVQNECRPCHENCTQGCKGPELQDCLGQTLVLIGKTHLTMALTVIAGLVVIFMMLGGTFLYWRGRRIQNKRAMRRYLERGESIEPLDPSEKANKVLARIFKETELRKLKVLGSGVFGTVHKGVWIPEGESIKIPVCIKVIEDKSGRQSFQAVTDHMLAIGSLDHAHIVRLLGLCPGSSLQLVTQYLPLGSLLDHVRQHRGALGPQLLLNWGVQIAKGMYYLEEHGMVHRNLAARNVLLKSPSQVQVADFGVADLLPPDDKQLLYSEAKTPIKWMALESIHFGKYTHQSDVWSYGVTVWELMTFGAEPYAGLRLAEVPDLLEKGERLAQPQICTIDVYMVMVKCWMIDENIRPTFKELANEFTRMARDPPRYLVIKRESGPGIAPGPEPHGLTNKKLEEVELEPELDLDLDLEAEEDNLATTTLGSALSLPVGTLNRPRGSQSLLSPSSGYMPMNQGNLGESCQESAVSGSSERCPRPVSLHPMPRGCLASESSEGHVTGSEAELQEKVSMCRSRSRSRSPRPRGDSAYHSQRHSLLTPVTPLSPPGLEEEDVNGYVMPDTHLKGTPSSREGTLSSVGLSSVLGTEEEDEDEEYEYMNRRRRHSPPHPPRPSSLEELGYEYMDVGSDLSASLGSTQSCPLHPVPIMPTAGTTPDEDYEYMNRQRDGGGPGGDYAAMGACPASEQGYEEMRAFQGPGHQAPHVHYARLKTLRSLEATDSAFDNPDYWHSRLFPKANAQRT
# Biological target: Receptor tyrosine-protein kinase erbB-3 (Homo sapiens, UniProt P21860)
smiles,measurement,value
CNC(=O)CN1CCC(Oc2cc3c(Nc4cccc(Cl)c4F)ncnc3cc2OC)CC1 [SAPITINIB],pIC50,8.40
